# From PubChem BioAssay AID1964107 (National Center for Advancing Translational Sciences (NCATS), 2024)
# The list shows a part of the results, in another mix than the full data. Records with an inconclusive call do not appear. The source made the active and inactive calls. Calls come from the whole dose curve.
# Biological target: Polyprotein P1234 (Chikungunya virus (strain S27-African prototype)) (UniProt Q8JUX6)
# Assay: Primary qHTS for inhibitors of NSP2Pro chikungunya virus (CHIKV); note: nearly all actives have a fitted effect of over 60% in size
# Conditions: FRET peptide cleavage, fluorescence 1 h; at 24.9 µM (top of the series)
# % is set by controls: 0 for no effect and ±100 for the full control effect.
row,Structure (SMILES),"activity change, negative = inhibition"
1,CN(CCCl)CCCl,inactive: -15.1%
